The text below walks through data of PubChem BioAssay AID760 (NMMLSC, 2007).

Each structure is given as a SMILES string. This is a selection; strong and weak results do not stand in their true shares. Calls of active or inactive are those of the source.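 The calls were made as follows: active = GTP binding activity at least 20 points away from 100%, either lowered or raised; inconclusive = signal likely due to the compound's own green fluorescence; inactive = the rest.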

For the test, the target named is Ras-related protein Rab-2A (Canis lupus familiaris) (UniProt P61105). As to the kind of experiment: modulators of GTP binding to Rab2A wildtype, primary screen, biochemical, dog, bead-based flow cytometry, multiplex (AID 760).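 Also: 0% = beads with excess unlabeled GTP and 100% = no-compound control corrected for plate trend.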 To be noted: GST-Rab2 wt beads, Bodipy-GTP binding, at 10 µM. In general terms: In flow cytometry, cells or beads pass a laser one at a time.
For `CN(C)c1ccc(C(=O)NCC2(N3CCCCC3)CCCCC2)cc1`, the GTP binding activity is inactive: 95%.

For `CCN1CCC(Nc2cccc(F)c2)CC1`, the GTP binding activity was inactive: 100%.

Regarding `Fc1ccccc1NC1CCN(Cc2ccccc2)CC1`, the GTP binding activity is inactive: 104%.

On to `COc1cc(OC)cc(C(=O)NCC2(N3CCOCC3)CCCCC2)c1`, for which the GTP binding activity is inactive: 92%.

As to `CC(C)(C)OC(=O)N1CCC(Nc2ccccc2)CC1`, the GTP binding activity was inactive: 100%.

In the case of `CCOc1ncccc1C(=O)NCC1(N2CCOCC2)CCCCC1`, the GTP binding activity was inactive: 101%.

As to `O=C(OC1CN2CCC1CC2)C1c2ccccc2C=Cc2ccccc21` (centres undefined), the GTP binding activity was inactive: 96%.

Regarding `N/C(=N\O)c1c(N)no[n+]1[O-]`, the GTP binding activity was inactive: 101%.

For `COc1ccc(C(=O)NCC2(N3CCOCC3)CCCCC2)cc1OC`, the GTP binding activity is inactive: 99%.

As to `c1ccc(CN2CCC(Nc3ccccc3)CC2)cc1`, the GTP binding activity was inactive: 97%.

As to `N#Cc1ccc(C(=O)NCC2(N3CCCCC3)CCCCC2)cc1`, the GTP binding activity is inactive: 101%.

Turning to `COc1ccc(NC2CCN(C(=O)OC(C)(C)C)CC2)cc1`, the GTP binding activity is inactive: 98%.

Regarding `CN1CCN(CCOC(=O)C(O)(c2ccccc2)c2ccccc2)CC1`, the GTP binding activity is inactive: 101%.

Take `O=C(NCC1(N2CCOCC2)CCCCC1)c1cc(=O)[nH]c2ccccc12`: the GTP binding activity is inactive: 100%.

Regarding `O=C(NCC1(N2CCCCC2)CCCCC1)c1cccc([N+](=O)[O-])c1`, the GTP binding activity is inactive: 100%.

Regarding `N#CC1(Nc2ccccc2)CCN(CCc2ccccc2)CC1`, the GTP binding activity was inactive: 106%.

In the case of `CN(C)c1cccc(C(=O)NCC2(N3CCCCC3)CCCCC2)c1`, the GTP binding activity was inactive: 98%.

Regarding `COc1ccc(CN(CCCl)CCCl)cc1Cl`, the GTP binding activity was inactive: 96%.

For the molecule `CC(C)c1ccc(NC2CCN(C(=O)OC(C)(C)C)CC2)cc1`, the GTP binding activity was inactive: 95%.

With `CCOC(=O)N1CCC(Nc2ccc(OC)cc2)CC1`, the GTP binding activity was inactive: 99%.

On to `O=C(OC1CN2CCC1CC2)C1c2ccccc2Oc2ccccc21` (centres undefined), for which the GTP binding activity is inactive: 99%.

As to `O=C(NCC1(N2CCOCC2)CCCCC1)c1cc2ccccc2o1`, the GTP binding activity is inactive: 101%.

In the case of `COc1ccc(C(=O)NCC2(N3CCCCC3)CCCCC2)c(OC)c1OC`, the GTP binding activity is inactive: 98%.

As to `COc1ccc(NC2CCN(CCc3ccccc3)CC2)c(OC)c1`, the GTP binding activity was inactive: 98%.
